For 18 substances, Ki and EC50 results are on record in patent US9096606B2, “Quarternized buprenorphine analogs” (dated 2015).

Sequences of proteins named here, by UniProt entry; tags and fusion partners are left off.
UniProt P35372, whole entry, looked up: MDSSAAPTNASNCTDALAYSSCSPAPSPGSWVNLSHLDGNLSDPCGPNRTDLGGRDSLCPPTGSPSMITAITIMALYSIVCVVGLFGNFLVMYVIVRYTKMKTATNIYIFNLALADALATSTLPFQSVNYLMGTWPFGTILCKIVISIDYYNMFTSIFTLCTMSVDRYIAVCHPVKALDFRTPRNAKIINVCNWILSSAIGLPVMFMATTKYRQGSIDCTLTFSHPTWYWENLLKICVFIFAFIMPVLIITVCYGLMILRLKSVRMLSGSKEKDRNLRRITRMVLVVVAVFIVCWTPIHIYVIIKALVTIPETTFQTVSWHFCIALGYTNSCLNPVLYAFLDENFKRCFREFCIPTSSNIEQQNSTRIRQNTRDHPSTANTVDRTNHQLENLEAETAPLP
UniProt P41145, whole entry, looked up: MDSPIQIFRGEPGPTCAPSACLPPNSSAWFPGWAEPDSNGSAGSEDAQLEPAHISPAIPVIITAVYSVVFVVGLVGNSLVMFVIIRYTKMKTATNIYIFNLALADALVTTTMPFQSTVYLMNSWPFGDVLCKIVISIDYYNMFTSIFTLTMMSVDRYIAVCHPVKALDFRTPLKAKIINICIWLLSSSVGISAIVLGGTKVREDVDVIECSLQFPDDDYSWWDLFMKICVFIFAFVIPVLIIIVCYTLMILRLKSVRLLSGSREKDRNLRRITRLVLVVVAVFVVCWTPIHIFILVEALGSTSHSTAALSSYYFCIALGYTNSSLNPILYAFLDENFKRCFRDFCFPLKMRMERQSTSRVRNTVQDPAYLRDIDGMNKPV
UniProt P41146, whole entry, looked up: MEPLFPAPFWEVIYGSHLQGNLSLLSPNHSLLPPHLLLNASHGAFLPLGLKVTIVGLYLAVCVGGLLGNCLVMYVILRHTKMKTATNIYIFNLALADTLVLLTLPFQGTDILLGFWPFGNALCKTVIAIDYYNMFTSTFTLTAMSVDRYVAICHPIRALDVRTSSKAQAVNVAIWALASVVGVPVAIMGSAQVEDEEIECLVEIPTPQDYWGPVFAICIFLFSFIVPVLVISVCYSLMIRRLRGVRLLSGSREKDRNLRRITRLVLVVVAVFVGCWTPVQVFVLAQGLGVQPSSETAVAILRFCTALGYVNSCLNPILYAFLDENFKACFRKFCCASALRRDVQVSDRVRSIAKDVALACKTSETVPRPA

For assay [1], the target named is T1, μ-opioid receptor (Homo sapiens (Human), UniProt P35372). In words: μ-opioid receptor radioligand dose-displacement binding assay ([3H]-diprenorphine). To be noted: read-out: Ki μ opioid receptor; binding affinity.
The target in assay [2] is κ opioid receptor (Homo sapiens (Human), UniProt P41145). Description: κ-opioid receptor radioligand dose displacement assay ([3H]-U69,593). To be noted: read-out: Ki κ opioid receptor; binding affinity.
The target in assay [3] is T2, δ opioid receptor (Homo sapiens (Human), UniProt P41143). Description: δ-opioid receptor radioligand dose-displacement assay ([3H]-Naltrindole). To be noted: read-out: Ki δ opioid receptor, binding affinity.
The target in assay [4] is human opioid receptor-like receptor (ORL-1) (Homo sapiens (Human), UniProt P41146). In words: ORL-1 receptor radioligand binding assay ([3H]-nociceptin). The settings on record: read-out: Ki ORL-1; binding affinity, bound given in μM.
For assay [5], the target named is T1, μ-opioid receptor. Description: μ-opioid receptor [35S]GTPγS functional assay. The settings on record: read-out: GTPγS μ EC50; bound given in μM. For orientation: GTPγS resists hydrolysis and so accumulates on activated G proteins.
For assay [6], the target named is T2, δ opioid receptor. Description: δ-opioid receptor functional [35S]GTPγS binding assay. The settings on record: read-out: GTPγS δ EC50; bound given in μM.

Read-outs that look alike come from different tables or passages of the source. This is a selection: effects in other tests are not listed, and their absence says nothing.

On to “(3R,4R,4aS,6R,7R,7aR,12bS)-3-(cyclopropylmethyl)-6-(((2-fluorobenzyl)oxy)methyl)-9-hydroxy-7-methoxy-3-methyl-1,2,3,4,5,6,7,7a-octahydro-4a,7-ethano-4,12-methanobenzofuro[3,2-e]isoquinolin-3-ium”, for which the inhibitory constant (Ki) (as a rule, a measure of affinity in units of concentration, obtained from inhibition or displacement) in assay [1] came to 4.51 nM; in assay [2] it was 0.2 nM.

As to “(3R,4R,4aS,6R,7R,7aR,12bS)-3-(cyclopropylmethyl)-6-(((3,4-dichlorobenzyl)oxy)methyl)-7,9-dimethoxy-3-methyl-1,2,3,4,5,6,7,7a-octahydro-4a,7-ethano-4,12-methanobenzofuro[3,2-e]isoquinolin-3-ium”, the Ki in assay [3] was 4.41 µM; in assay [1] it was 67.2 nM; in assay [2], 5.02 nM; in assay [4], greater than 20 µM.

In the case of “(3R,4R,4aS,6R,7R,7aR,12bS)-6-(((6-chlorobenzo[d][1,3]dioxol-5-yl)methoxy)methyl)-3-(cyclopropylmethyl)-7,9-dimethoxy-3-methyl-1,2,3,4,5,6,7,7a-octahydro-4a,7-ethano-4,12-methanobenzofuro[3,2-e]isoquinolin-3-ium”, the inhibitory constant (Ki) in assay [3] was 18.4 µM; in assay [1], 163 nM; in assay [2], 66.7 nM; in assay [4] it was greater than 20 µM.

Regarding “(3R,4R,4aS,6R,7R,7aR,12bS)-6-(((4-carbamoylbenzyl)oxy)methyl)-3-(cyclopropylmethyl)-7,9-dimethoxy-3-methyl-1,2,3,4,5,6,7,7a-octahydro-4a,7-ethano-4,12-methanobenzofuro[3,2-e]isoquinolin-3-ium”, the Ki in assay [2] worked out at 1030 nM.

For the substance “(3R,4R,4aS,6R,7R,7aR,12bS)-6-(((3-chlorobenzyl)oxy)methyl)-3-(cyclopropylmethyl)-9-hydroxy-7-methoxy-3-methyl-1,2,3,4,5,6,7,7a-octahydro-4a,7-ethano-4,12-methanobenzofuro[3,2-e]isoquinolin-3-ium”, the inhibition constant (Ki) in assay [1] is 6.26 nM; in assay [2], 0.27 nM.

As for “(3R,4R,4aS,6R,7R,7aR,12bS)-3-(cyclopropylmethyl)-6-((furan-2-ylmethoxy)methyl)-7,9-dimethoxy-3-methyl-1,2,3,4,5,6,7,7a-octahydro-4a,7-ethano-4,12-methanobenzofuro[3,2-e]isoquinolin-3-ium”, the Ki was found to be 4.79 µM in assay [3], 571 nM in assay [1] and 10.6 nM in assay [2]. Further, the concentration giving a half-maximal response (EC50) (commonly the concentration giving half of the maximal effect) in assay [5] is greater than 20 µM.

Take “(3R,4R,4aS,6R,7R,7aR,12bS)-3-(cyclopropylmethyl)-9-hydroxy-7-methoxy-3-methyl-6-((thiophen-3-ylmethoxy)methyl)-1,2,3,4,5,6,7,7a-octahydro-4a,7-ethano-4,12-methanobenzofuro[3,2-e]isoquinolin-3-ium”: the concentration for a half-maximal effect (EC50) in assay [6] and in assay [5] was greater than 20 µM throughout. Besides, the Ki was determined as 0.202 µM in assay [3], 24.3 nM in assay [1] and 0.2 nM in assay [2].

Regarding “(3R,4R,4aS,6R,7R,7aR,12bS)-6-((benzyloxy)methyl)-3-(cyclopropylmethyl)-9-hydroxy-7-methoxy-3-methyl-1,2,3,4,5,6,7,7a-octahydro-4a,7-ethano-4,12-methanobenzofuro[3,2-e]isoquinolin-3-ium”, the values for the Ki in assay [3], in assay [1] and in assay [2] were 0.0188 µM, 2.11 nM and 0.55 nM, respectively.

Consider “(3R,4R,4aS,6R,7R,7aR,12bS)-6-((benzofuran-2-ylmethoxy)methyl)-3-(cyclopropylmethyl)-7,9-dimethoxy-3-methyl-1,2,3,4,5,6,7,7a-octahydro-4a,7-ethano-4,12-methanobenzofuro[3,2-e]isoquinolin-3-ium”, for which the inhibition constant Ki is 275 nM in assay [1] and 17.3 nM in assay [2]. Besides, the 50% effective concentration (EC50) in assay [5] was greater than 20 µM.

As for “(3R,4R,4aS,6R,7R,7aR,12bS)-3-(cyclopropylmethyl)-7,9-dimethoxy-6-(((4-methoxybenzyl)oxy)methyl)-3-methyl-1,2,3,4,5,6,7,7a-octahydro-4a,7-ethano-4,12-methanobenzofuro[3,2-e]isoquinolin-3-ium”, the Ki is greater than 20 µM in assay [3] (bound given in μM), 544 nM in assay [1], 57 nM in assay [2] and greater than 20 µM in assay [4]. In addition, the EC50 in assay [5] is greater than 20 µM.

Turning to “(3R,4R,4aS,6R,7R,7aR,12bS)-3-(cyclopropylmethyl)-9-hydroxy-7-methoxy-3-methyl-6-(((2-methylbenzyl)oxy)methyl)-1,2,3,4,5,6,7,7a-octahydro-4a,7-ethano-4,12-methanobenzofuro[3,2-e]isoquinolin-3-ium”, the Ki in assay [2] worked out at 0.47 nM.

As for “(3R,4R,4aS,6R,7R,7aR,12bS)-3-(cyclopropylmethyl)-7,9-dimethoxy-3-methyl-6-((naphthalen-2-ylmethoxy)methyl)-1,2,3,4,5,6,7,7a-octahydro-4a,7-ethano-4,12-methanobenzofuro[3,2-e]isoquinolin-3-ium”, the inhibition constant (Ki) in assay [1] came out at 182 nM; in assay [2], 165 nM. Further, the half-maximal effective concentration (EC50) in assay [5] was greater than 20 µM.

Turning to “(3R,4R,4aS,6R,7R,7aR,12bS)-3-(cyclopropylmethyl)-7,9-dimethoxy-3-methyl-6-(((4-methylbenzyl)oxy)methyl)-1,2,3,4,5,6,7,7a-octahydro-4a,7-ethano-4,12-methanobenzofuro[3,2-e]isoquinolin-3-ium”, the Ki in assay [3] was 10.1 µM; in assay [1], 242 nM; in assay [2], 117 nM; in assay [4], greater than 20 µM. Also, the EC50 in assay [5] is greater than 20 µM.

Regarding “(3R,4R,4aS,6R,7R,7aR,12bS)-3-(cyclopropylmethyl)-6-(((3-fluorobenzyl)oxy)methyl)-9-hydroxy-7-methoxy-3-methyl-1,2,3,4,5,6,7,7a-octahydro-4a,7-ethano-4,12-methanobenzofuro[3,2-e]isoquinolin-3-ium”, the Ki turned out to be 5.35 nM in assay [1] and 0.25 nM in assay [2].

As to “(3R,4R,4aS,6R,7R,7aR,12bS)-6-(((4-chlorobenzyl)oxy)methyl)-3-(cyclopropylmethyl)-9-hydroxy-7-methoxy-3-methyl-1,2,3,4,5,6,7,7a-octahydro-4a,7-ethano-4,12-methanobenzofuro[3,2-e]isoquinolin-3-ium”, in assay [2], the Ki was 0.59 nM.

On to “(3R,4R,4aS,6R,7R,7aR,12bS)-3-(cyclopropylmethyl)-6-((furan-3-ylmethoxy)methyl)-7,9-dimethoxy-3-methyl-1,2,3,4,5,6,7,7a-octahydro-4a,7-ethano-4,12-methanobenzofuro[3,2-e]isoquinolin-3-ium”, for which the inhibition constant (Ki) in assay [1] was found to be 5810 nM; in assay [2], 35 nM.

As for “(3R,4R,4aS,6R,7R,7aR,12bS)-6-(((2-chlorobenzyl)oxy)methyl)-3-(cyclopropylmethyl)-9-hydroxy-7-methoxy-3-methyl-1,2,3,4,5,6,7,7a-octahydro-4a,7-ethano-4,12-methanobenzofuro[3,2-e]isoquinolin-3-ium”, in assay [2], the inhibitory constant (Ki) is 0.19 nM.

In the case of “(3R,4R,4aS,6R,7R,7aR,12bS)-3-(cyclopropylmethyl)-9-hydroxy-7-methoxy-3-methyl-6-(((3-methylbenzyl)oxy)methyl)-1,2,3,4,5,6,7,7a-octahydro-4a,7-ethano-4,12-methanobenzofuro[3,2-e]isoquinolin-3-ium”, the inhibition constant (Ki) came out at 4.3 nM in assay [1] and 0.29 nM in assay [2].
